# Binding of CDR-mutated scFvs to a peptide of the spike HR2 region

All variants were tested on one target, the spike HR2 peptide PDVDLGDISGINAS (SARS-CoV-2).

Parent scFv Ab-14: VH joined to VL by a 15-residue (Gly4Ser)3 linker. Changes lie in the light chain CDRs alone.
VH: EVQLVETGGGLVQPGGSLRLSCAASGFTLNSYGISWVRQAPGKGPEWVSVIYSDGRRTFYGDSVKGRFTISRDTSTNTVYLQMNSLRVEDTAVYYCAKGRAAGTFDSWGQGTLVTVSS
VL: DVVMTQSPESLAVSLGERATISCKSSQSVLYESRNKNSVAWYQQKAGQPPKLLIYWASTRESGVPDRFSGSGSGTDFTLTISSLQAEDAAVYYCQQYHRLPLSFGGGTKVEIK

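The starting antibody came from a phage panning campaign against this peptide. This is the validation round: designs drawn from the data on random variants, tested in the same kind of assay. Several design methods are mixed in this list. The assay is AlphaSeq: two haploid yeast populations carry antibody and antigen on their surface. After mating in shaken culture at 30 °C for 16 h, diploids were selected and their barcode pairs sequenced. Read counts were normalised to the haploid input and turned into Kd by a linear fit to BCL2-family pairs of known affinity, for each replicate. Mating was done six times.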

The whole VL of each variant is written out.
This list holds designs with more than six substitutions.
The read-out is the apparent dissociation constant on a log10 scale (nM): the lower, the stronger.
Replicates are averaged; those with no signal do not enter the mean.
A pair that was not seen in that replicate is written "nd"; this usually means weak binding, but a binder can also be missed.

With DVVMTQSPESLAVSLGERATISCTISQLMNMGQFAINSVAWYQQKAGQPPKLLIYQASIRNEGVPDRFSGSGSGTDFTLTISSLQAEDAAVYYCQQYDRLPLQFGGGTKVEIK the result was 1.49, 1.26, 1.27, 1.34, 1.04, 1.60 (mean 1.33). Variant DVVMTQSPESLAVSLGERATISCHVSEMIFAQMKQRNSVAWYQQKAGQPPKLLIYENNTREAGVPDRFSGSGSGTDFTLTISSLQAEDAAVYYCQQYDRLPLSFGGGTKVEIK gave nd, 2.56, 1.45, 2.35, 2.10, 2.55 (mean 2.20). Variant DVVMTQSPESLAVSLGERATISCMFSSLMEYGMRYKNSVAWYQQKAGQPPKLLIYQASTRENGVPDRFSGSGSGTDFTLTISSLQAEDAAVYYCQQYHWLPLSFGGGTKVEIK showed nd, nd, nd, nd, nd, nd. Variant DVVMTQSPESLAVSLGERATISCKLRNEAIGWYRNGASIAWYQQKAGQPPKLLIYDEHYRVDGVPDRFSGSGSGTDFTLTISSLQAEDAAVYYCQQYHHLPLLFGGGTKVEIK showed 0.69, 0.77, 0.34, 0.52, 0.44, 1.17 (mean 0.66). Variant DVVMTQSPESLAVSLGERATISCKIQTKTYFENIGEYSVAWYQQKAGQPPKLLIYDANTSVDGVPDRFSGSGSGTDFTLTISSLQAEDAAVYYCQYYFRLPLSFGGGTKVEIK gave 0.22, 0.42, 0.64, 0.38, 1.02, 0.30 (mean 0.50).

Variant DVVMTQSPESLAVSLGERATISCKIEQSMEYESRNVNSVAWYQQKAGQPPKLLIYNASTREVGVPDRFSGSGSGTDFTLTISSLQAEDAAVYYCQQYHRLPLSFGGGTKVEIK showed 0.30, -0.07, -0.23, -0.05, -0.06, -0.03 (mean -0.03). Variant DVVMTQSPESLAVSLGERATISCKLTMITGLEKVSKNQVAWYQQKAGQPPKLLIYEMETREKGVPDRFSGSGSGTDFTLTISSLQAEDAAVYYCQQYNRLPLSFGGGTKVEIK gave -0.10, 0.06, -0.11, 0.14, 0.48, 0.55 (mean 0.17). Variant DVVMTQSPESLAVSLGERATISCQLGAYQDMTSKNKNSVAWYQQKAGQPPKLLIYEQSTRENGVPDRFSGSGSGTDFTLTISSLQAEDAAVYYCQQYHRLPLSFGGGTKVEIK showed 1.41, 1.28, 1.21, 1.38, 1.76, 1.95 (mean 1.50). Variant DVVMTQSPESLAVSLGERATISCHISQSVEGEESNKNSVAWYQQKAGQPPKLLIYSASTREQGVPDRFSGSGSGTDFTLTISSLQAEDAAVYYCQQYHRLPLSFGGGTKVEIK gave 1.02, 0.68, 0.66, 0.49, 0.63, 0.59 (mean 0.68). Variant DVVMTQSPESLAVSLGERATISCMMGMTVTMQSNEIGNVAWYQQKAGQPPKLLIYDMNERFAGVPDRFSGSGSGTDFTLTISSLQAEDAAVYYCQQYFQLPLSFGGGTKVEIK showed 0.22, 0.81, 0.34, 0.35, 0.64, 0.72 (mean 0.51).

With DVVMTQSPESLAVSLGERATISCSLQSEQIGGNQQTSSIAWYQQKAGQPPKLLIYGESVAMPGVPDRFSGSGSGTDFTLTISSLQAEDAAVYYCQHYERLPLSFGGGTKVEIK the result was 0.88, 0.52, 0.40, 0.50, 0.72, 0.66 (mean 0.61). For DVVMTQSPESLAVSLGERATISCRFDQTEQMGIRDYNSVAWYQQKAGQPPKLLIYNGSQSATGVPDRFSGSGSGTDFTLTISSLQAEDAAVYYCQHYSRLPISFGGGTKVEIK, the assay gave 3.56, 2.46, 1.79, 1.91, 2.37, 1.91 (mean 2.33). For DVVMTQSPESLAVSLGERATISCDVHALMNHSSDLMQSIAWYQQKAGQPPKLLIYDDSCRDAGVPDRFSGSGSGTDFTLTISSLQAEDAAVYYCQQYERLPLSFGGGTKVEIK, the assay gave 1.86, 1.90, 1.78, 1.73, 2.02, 1.88 (mean 1.86). For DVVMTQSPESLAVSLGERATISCKLSQSVLYEDRNWNNVAWYQQKAGQPPKLLIYAASKRESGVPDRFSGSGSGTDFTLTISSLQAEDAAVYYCQAYHRLPLSFGGGTKVEIK, the assay gave 0.41, 0.32, 0.43, 0.23, 0.49, 0.48 (mean 0.39). Variant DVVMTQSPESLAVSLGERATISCNISHFMDVTAKNINNVAWYQQKAGQPPKLLIYEMTTREEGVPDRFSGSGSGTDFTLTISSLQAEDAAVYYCQQYHHLPLSFGGGTKVEIK gave 0.48, 0.27, 0.38, 0.11, 0.01, 0.79 (mean 0.34).

With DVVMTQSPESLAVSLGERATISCHISSMDMHDGGIIHSIAWYQQKAGQPPKLLIYDTGITERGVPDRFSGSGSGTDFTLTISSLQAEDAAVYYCQQYMRLPLIFGGGTKVEIK the result was 0.07, 0.11, 0.06, 0.13, -0.07, 0.20 (mean 0.08). With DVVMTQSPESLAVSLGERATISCHMMMYREMQNNIQNNIAWYQQKAGQPPKLLIYDAMTRVTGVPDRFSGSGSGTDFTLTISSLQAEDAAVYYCQQYQHLPLSFGGGTKVEIK the result was 0.01, -0.08, 0.10, -0.06, -0.26, -0.04 (mean -0.06). Variant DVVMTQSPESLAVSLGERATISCYVSIQAAQDRNQQQSIAWYQQKAGQPPKLLIYGVDYREKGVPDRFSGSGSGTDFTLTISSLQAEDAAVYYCQQYYHLPLSFGGGTKVEIK gave 2.19, 1.36, 1.60, 1.44, 1.53, 1.31 (mean 1.57). Variant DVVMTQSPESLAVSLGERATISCKLTATMRFEQKASNNIAWYQQKAGQPPKLLIYEVTNRIKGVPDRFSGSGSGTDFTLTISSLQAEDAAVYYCQQYYRLPLAFGGGTKVEIK gave 1.04, 0.94, 1.15, 1.86, 0.58, 0.88 (mean 1.08). With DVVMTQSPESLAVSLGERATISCMIHEVMGSVSHKQSSIAWYQQKAGQPPKLLIYDNSTRESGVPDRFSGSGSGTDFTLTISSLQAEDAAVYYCQQYDRLPLSFGGGTKVEIK the result was nd, nd, nd, nd, nd, nd.

Top 2 of the variants detected in all replicates, tightest first:

VL	replicates, log10 nM	mean, log10 nM
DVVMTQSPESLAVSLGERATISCHMMMYREMQNNIQNNIAWYQQKAGQPPKLLIYDAMTRVTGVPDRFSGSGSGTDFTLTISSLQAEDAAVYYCQQYQHLPLSFGGGTKVEIK	0.01, -0.08, 0.10, -0.06, -0.26, -0.04	-0.06
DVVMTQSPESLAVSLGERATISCKIEQSMEYESRNVNSVAWYQQKAGQPPKLLIYNASTREVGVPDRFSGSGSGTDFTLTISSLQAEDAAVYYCQQYHRLPLSFGGGTKVEIK	0.30, -0.07, -0.23, -0.05, -0.06, -0.03	-0.03

The parent sequence was in this pool as ten entries: three were never detected, three once, and four in most replicates, with averages from 0.34 to 2.37.
In the paper, a design with two or fewer of six values counts as a poor binder.
The range of this assay differs from that of the first round, and the authors advise against merging the two.
Three control strains display no target. For all light chain designs, 4% of the pairings with them gave a signal, with a median of 2.64 and one signal in twenty below 1.59, so weak values seen in few replicates may be background.

Source: Li et al. 2023 (doi:10.1038/s41467-023-39022-2), MIT Lincoln Laboratory and A-Alpha Bio; data file from the FLAb repository.